The values below come from article PMC6066304.

The experiment addresses Arabidopsis thaliana plant cysteine oxidase 4 (Arabidopsis thaliana) (UniProt Q9SJI9).

On to “AtRAP2(2–15), 14-amino acid peptide corresponding to the methionine excised N terminus of AtRAP2.2 and AtRAP2.12”, for which the Km for AtRAP2(2–15); initial rates of N-terminal cysteine oxidation by LC-MS, Michaelis–Menten fit with substrate inhibition, atmospheric O2, pH 8.0, 25 °C came out at 0.69 mM.
